Values of other authors as cited in patent US11474103B2, “Systems for detection” (dated 2022).

Test system: dogs
Settings: concentration in air detectable by dogs

## CC(C)([N+](=O)[O-])C(C)(C)[N+](=O)[O-]
  detectable by dogs in air: (detectable by dogs at 0.5 ppb
